Data reported in patent US8193239B2, “Substituted 1-cyanoethylheterocyclylcarboxamide compounds” (AstraZeneca AB, priority 2009, dated 2012).

Sequences of proteins named here, by UniProt entry; tags and fusion partners are left off. Residues count along the entry.
UniProt P53634, 395-463 limits assumed: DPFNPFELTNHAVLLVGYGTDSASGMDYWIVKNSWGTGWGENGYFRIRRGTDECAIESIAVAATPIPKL
UniProt P53634, 25-134 limits assumed: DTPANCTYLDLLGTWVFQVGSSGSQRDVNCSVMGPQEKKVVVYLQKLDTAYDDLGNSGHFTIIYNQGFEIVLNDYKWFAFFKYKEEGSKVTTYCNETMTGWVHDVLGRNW
UniProt P53634, 231-394 limits assumed: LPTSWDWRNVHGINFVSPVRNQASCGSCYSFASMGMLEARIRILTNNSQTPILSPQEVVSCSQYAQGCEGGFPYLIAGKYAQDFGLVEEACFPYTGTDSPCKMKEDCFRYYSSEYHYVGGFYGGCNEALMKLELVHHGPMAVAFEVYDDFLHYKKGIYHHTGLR

Molecular target: Recombinant Human (rh) DPP1 (Homo sapiens, UniProt P53634)
Assay: Fluorescence Assay for Recombinant Human (rh) DPP1
Type: biochemical
Conditions: rhDPP1, substrate H-Gly-Arg-AMC, pH5.0, 22° C., pre-incubated 30-60 min; read-out: DPP1 activity, pIC50 (converted)
Protocol: Fluorescence Assay for Recombinant Human (rh) DPP1
The activity of DPP1 was determined by measuring the enzymatic release of aminomethyl coumarin (AMC) from the peptide substrate (H-Gly-Arg-AMC), which leads to an increase in fluorescence intensity at λex=350 nm and λem=450 nm. The assay was carried out in black 384 well plates in a final volume of 50 μl at 22° C. The assay conditions contained the following: 25 mM piperazine buffer pH5.0; 50 mM NaCl, 5 mM DTT; 0.01% (v/v) Triton X-100; 100 μM H-Gly-Arg-AMC and rhDPP1 (˜50 μM). Potential inhibitors were made up in DMSO and then diluted in the assay to give a final concentration of not exceeding 1% (v/v) DMSO. A 10-point half-log dilution series of the inhibitors (highest concentration typically 10 μM) was tested and the pIC50 determined using a 4-paramater logistic equation in a non-linear curve fitting routine. A standard DPP1 inhibitor (vinyl sulfone, see below, or Example 24 from WO2009/074829) was used as a positive control in the assay. Routinely, inhibitors were pre-incubated with rhDPP1 for 30-60 min prior to the addition of the peptide substrate to start the reaction for a further 60 min at 22° C. After that the plates were immediately read in a fluorescence plate reader using the above emission and excitation wavelengths [modified from Kam, C M, Gotz, M G, Koot, G, McGuire, M J, Thiele, D L, Hudig, D & Powers, J C (2004). […]

- IC50: 0.794 nM
Structure (SMILES): N#Cc1ccc(-c2ccc(C[C@@H](C#N)NC(=O)C3(N)CCOCC3)cc2)cc1 [Example 3, (S)-4-Amino-N-(1-cyano-2-(4′-cyanobiphenyl-4-yl)ethyl)tetrahydro-2H-pyran-4-carboxamide]
